Experimental data published in ChEMBL document CHEMBL2346630 (J Med Chem, 2013).
pKi: −log10 of the molar value.

The chains behind the UniProt entries cited, without tags or fusion partners. Where a name states a change or a piece, a line headed by the entry shows the natural chain unless it says otherwise.
UniProt P50613: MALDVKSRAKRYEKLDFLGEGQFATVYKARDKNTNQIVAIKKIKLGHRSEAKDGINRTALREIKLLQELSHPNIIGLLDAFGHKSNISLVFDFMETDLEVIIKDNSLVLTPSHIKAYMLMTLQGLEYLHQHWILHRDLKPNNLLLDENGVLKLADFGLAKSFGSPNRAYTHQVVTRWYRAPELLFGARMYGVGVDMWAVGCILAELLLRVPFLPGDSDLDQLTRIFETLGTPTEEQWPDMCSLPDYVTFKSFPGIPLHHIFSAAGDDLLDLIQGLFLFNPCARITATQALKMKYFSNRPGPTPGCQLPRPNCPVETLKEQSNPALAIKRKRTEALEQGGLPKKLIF

Biological target: Cyclin-dependent kinase 7/ cyclin H (Homo sapiens, UniProt P50613)
Assay: biochemical

CNc1nc(C)c(-c2nc(Nc3cccc(S(N)(=O)=O)c3)ncc2F)s1 [ASNUCICLIB]
pKi: 7.04
